# According to PubChem BioAssay AID485272 (The Scripps Research Institute Molecular Screening Center, 2010):
# The chains behind the UniProt entries cited, without tags or fusion partners.
# UniProt Q9UM07, whole entry: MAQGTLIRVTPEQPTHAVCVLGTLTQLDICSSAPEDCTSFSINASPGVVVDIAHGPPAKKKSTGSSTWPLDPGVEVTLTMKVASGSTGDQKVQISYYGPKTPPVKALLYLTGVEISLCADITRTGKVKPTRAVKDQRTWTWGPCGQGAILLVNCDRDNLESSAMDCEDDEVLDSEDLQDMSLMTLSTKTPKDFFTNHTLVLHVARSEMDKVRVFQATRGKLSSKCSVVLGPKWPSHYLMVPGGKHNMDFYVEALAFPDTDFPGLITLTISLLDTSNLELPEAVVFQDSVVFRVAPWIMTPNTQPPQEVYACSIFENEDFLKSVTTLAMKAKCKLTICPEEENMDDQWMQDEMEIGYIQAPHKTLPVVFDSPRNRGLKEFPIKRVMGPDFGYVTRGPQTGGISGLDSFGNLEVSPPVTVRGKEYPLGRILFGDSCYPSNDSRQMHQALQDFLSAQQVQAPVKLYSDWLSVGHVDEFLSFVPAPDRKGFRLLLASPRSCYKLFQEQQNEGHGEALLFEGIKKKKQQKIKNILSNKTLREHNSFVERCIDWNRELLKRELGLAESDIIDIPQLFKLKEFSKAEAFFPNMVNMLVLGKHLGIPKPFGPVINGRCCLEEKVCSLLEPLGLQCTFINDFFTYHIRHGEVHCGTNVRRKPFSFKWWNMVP
# Only a part is listed here, and it is no random draw. Activity calls are given as the source filed them.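 The calls were made as follows: active = percent inhibition above a cutoff equal to the mean of all tested compounds plus 3 SD (cut at about 15% in these data); inactive = the rest.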
# Molecular target: Protein-arginine deiminase type-4 (Homo sapiens) (UniProt Q9UM07)
# Experiment: human PAD4 inhibitors, primary screen, biochemical, fluorescence polarization, 1536-well format (AID 485272);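 also: 0% = PAD4 with RCA probe and DMSO and 100% = probe without PAD4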
# Settings: recombinant PAD4, RCA probe fluorescence polarization; at 6.36 µM; stronger effect = higher value
row,Structure (SMILES),inhibition
1,CCOC(=O)N1CCC(Nc2ccc(C)cc2)CC1,inactive: -0.03%
2,N/C(=N\O)c1c(N)no[n+]1[O-],inactive: -15.7%
3,O=C(OC1CN2CCC1CC2)C1c2ccccc2C=Cc2ccccc21 (stereo not drawn),inactive: 0.53%
4,CCc1cc(C(=O)NCC2(N3CCCCC3)CCCCC2)sc1C,inactive: -2.62%
5,COc1cc(C(=O)NCC2(N3CCOCC3)CCCCC2)cc(OC)c1C,inactive: -3.36%
6,O=C(NCC1(N2CCOCC2)CCCCC1)c1cc(Br)ccc1Cl,inactive: -3.16%
7,COc1ccc(C(=O)NCC2(N3CCOCC3)CCCCC2)cc1OC,inactive: -1.89%
8,CN(C)C1(CNC(=O)c2cccc(C#N)c2)CCCCC1,inactive: 3.37%
9,c1ccc(CN2CCC(Nc3ccccc3)CC2)cc1,inactive: 0.93%
10,CCCN1CCC(Nc2cc(OC)cc(OC)c2)CC1,inactive: -0.01%
11,N#Cc1ccc(C(=O)NCC2(N3CCCCC3)CCCCC2)cc1,inactive: -0.46%
12,CC(C)(C)OC(=O)N1CCC(N(C(=O)c2ccccc2)c2ccc(Cl)cc2)CC1,inactive: -3.65%
13,CCN1CCC(Nc2cccc(F)c2)CC1,inactive: 0.74%
14,O=C(NCC1(N2CCCCC2)CCCCC1)c1ccco1,inactive: -4.3%
15,CN(C)c1ccc(C(=O)NCC2(N3CCCCC3)CCCCC2)cc1,inactive: -1.26%
16,COc1cc(OC)cc(C(=O)NCC2(N3CCCCC3)CCCCC2)c1,inactive: 1.28%
17,Cc1ccc(C(=O)NCC2(N3CCCCC3)CCCCC2)o1,inactive: 4.21%
18,Fc1ccccc1NC1CCN(Cc2ccccc2)CC1,inactive: -1.07%
19,COc1cccc(C(=O)N(c2cc(C)cc(C)c2)C2CCN(C(=O)OC(C)(C)C)CC2)c1,inactive: -7.38%
20,COc1cc(OC)cc(C(=O)NCC2(N3CCOCC3)CCCCC2)c1,inactive: -3.44%
21,CCC(CO)(C(=O)OC1CN2CCC1CC2)c1ccccc1 (stereo not drawn),inactive: -0.67%

row,Structure (SMILES),inhibition
1,CN1CCC(Nc2ccc(Cl)cc2)CC1,inactive: 2.19%
2,CCCOc1ccc(C)cc1CN(CCCl)CCCl,inactive: 3.88%
3,CCOc1ncccc1C(=O)NCC1(N2CCOCC2)CCCCC1,inactive: -2.06%
4,CN1CCC(Nc2ccc(F)c(Cl)c2)CC1,inactive: -2.08%
5,CC(C)(C)OC(=O)N1CCC(Nc2ccccc2)CC1,inactive: 0.03%
6,O=C(O)C1(Nc2ccccc2)CCN(Cc2ccccc2)CC1,inactive: 3.49%
7,CCCOc1ccc(C(=O)NCC2(N(C)C)CCCCC2)cc1,inactive: 1.46%
8,O=C(NCC1(N2CCCCC2)CCCCC1)c1ccc(Cl)nc1,inactive: -2.43%
9,Cc1cc(C)cc(N(C(=O)c2ccccc2)C2CCN(C(=O)OC(C)(C)C)CC2)c1,inactive: -1.78%
10,O=C(NCC1(N2CCOCC2)CCCCC1)c1cc2ccccc2o1,inactive: -5.81%
11,O=C(OC1CN2CCC1CC2)C1c2ccccc2Oc2ccccc21 (stereo not drawn),inactive: -4.87%
12,N#CC1(Nc2ccccc2)CCN(Cc2ccccc2)CC1,inactive: -5.82%
13,O=C(NCC1(N2CCCCC2)CCCCC1)c1ccc(Cl)s1,inactive: 0.31%
14,COc1ccc(Cl)cc1C(=O)NCC1(N2CCOCC2)CCCCC1,inactive: 0.35%
15,CCOC(=O)N1CCC(Nc2ccc(OC)cc2)CC1,inactive: -0.5%
16,COc1ccc(C(=O)NCC2(N3CCCCC3)CCCCC2)cc1,inactive: 3.87%
17,CC(C)(C)OC(=O)N1CCC(N(C(=O)c2ccccc2)c2ccc(F)cc2)CC1,inactive: 6.86%
18,COc1ccc(C(=O)NCC2(N3CCCCC3)CCCCC2)c(OC)c1OC,inactive: 4.58%
19,O=C(NCC1(N2CCCCC2)CCCCC1)c1ccc(=O)[nH]c1,inactive: 4.72%
20,O=C(NCC1(N2CCCCC2)CCCCC1)c1cccs1,inactive: -1.23%
21,CSc1ccccc1C(=O)NCC1(N2CCCCC2)CCCCC1,inactive: -6.02%

row,Structure (SMILES),inhibition
1,CCOC(=O)N1CCC(Nc2cccc(C)c2)CC1,inactive: 4.95%
2,Cc1ccc(OCC(C)C)c(CN(CCCl)CCCl)c1,inactive: 6.04%
3,CCOc1ccc(C)cc1CN(CCCl)CCCl,inactive: -5.75%
4,O=C(NCC1(N2CCCCC2)CCCCC1)c1ccc(F)cc1,inactive: 1.98%
5,COc1ccc(NC2CCN(CCc3ccccc3)CC2)c(OC)c1,inactive: -5.76%
6,O=C(NCC1(N2CCCCC2)CCCCC1)c1cccc(C(F)(F)F)c1,inactive: -1.26%
7,O=C(NCC1(N2CCOCC2)CCCCC1)c1cc(=O)[nH]c2ccccc12,inactive: -4.33%
8,COc1cc(C(=O)NCC2(N3CCCCC3)CCCCC2)ccc1OC(F)F,inactive: -5.81%
9,COc1ccc(NC2CCN(C(=O)OC(C)(C)C)CC2)cc1,inactive: -4.28%
10,CN1CCN(CCOC(=O)C(O)(c2ccccc2)c2ccccc2)CC1,inactive: -0.99%
11,O=C(NCC1(N2CCCCC2)CCCCC1)c1ccc(OC(F)F)cc1,inactive: -2.94%
12,CCN1CCC(Nc2ccc(Cl)cc2)CC1,inactive: 0.64%
13,N#CC1(Nc2ccccc2)CCN(CCc2ccccc2)CC1,inactive: -2.37%
14,O=C(NCC1(N2CCCCC2)CCCCC1)c1cccc([N+](=O)[O-])c1,inactive: -3.61%
15,O=C(NCC1(N2CCCCC2)CCCCC1)c1cncc(Br)c1,inactive: -4.84%
16,CN1CCC(Nc2cccc(F)c2)CC1,inactive: -8.72%
17,CC(C)c1ccc(NC2CCN(C(=O)OC(C)(C)C)CC2)cc1,inactive: 1.43%
18,COc1ccc(CN(CCCl)CCCl)cc1Cl,inactive: 2.78%
19,CN(C)c1cccc(C(=O)NCC2(N3CCCCC3)CCCCC2)c1,inactive: -5.72%
20,COc1cc(OC)c(C(=O)NCC2(N(C)C)CCCCC2)cc1OC,inactive: 3.01%
21,O=C(NCC1(N2CCOCC2)CCCCC1)c1cc(F)c(F)cc1Cl,inactive: 0.05%
